## Measured affinities in a library of Ab-95 light chain variants

Source: Engelhart et al. 2022 (doi:10.1038/s41597-022-01779-4), MIT Lincoln Laboratory and A-Alpha Bio; data file from the FLAb repository.

All variants were tested on one target, the spike HR2 peptide PDVDLGDISGINAS (SARS-CoV-2).

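In library AAYL52, one, two or three CDR residues were substituted; doubles and triples were drawn at random. AlphaSeq pools MATa yeast showing the antibodies with MATalpha yeast showing the peptide. Binding brings cells together so that they mate, and sequencing counts the barcode pairs among the diploids. The ratio of observed to expected reads was calibrated, replicate by replicate, on BCL2-family standards whose Kd was known from biolayer interferometry. Mating was done three times.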

Parent: Ab-95, a human scFv built as VH, a 15-residue (Gly4Ser)3 linker, VL. Only the CDRs of the light chain vary.
VH: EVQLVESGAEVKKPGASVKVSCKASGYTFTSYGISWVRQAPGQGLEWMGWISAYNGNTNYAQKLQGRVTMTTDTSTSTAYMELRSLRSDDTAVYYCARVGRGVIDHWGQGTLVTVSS
VL: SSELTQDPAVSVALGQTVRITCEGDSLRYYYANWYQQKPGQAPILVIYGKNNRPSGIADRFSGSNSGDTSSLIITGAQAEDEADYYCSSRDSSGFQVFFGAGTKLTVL

Substitutions are numbered in sequence along the VL above, starting at 1 (not Kabat). Every variant below is changed at S89 of the VL (sequential numbering). Values are apparent Kd, the geometric mean of the replicates that gave a signal; lower means stronger binding. "no signal" marks a missing value. The strain was present, yet no cells mated with the target were sequenced in any replicate, which points to weak or no binding. Empty control strains, which show no peptide, gave a signal in 28% of pairings with library AAYL52; the median was 8.2 µM and 95% of these signals were weaker than 800 nM. No background was subtracted. In this assay the parent's reference entry averaged 200 nM; its copy inside this library read 180 nM.

* G49F S89A F95L = 910 nM (2 of 3 replicates)
* D25K S89V F95P = 120 nM (3 of 3 replicates)
* N52W S89I G94R = 4.8 µM (3 of 3 replicates)
* N51P S89Q S93W = 8.8 µM (2 of 3 replicates)
* D25N K50C S89F = 6.1 µM (3 of 3 replicates)
* E23N N51M S89P = 6.8 µM (2 of 3 replicates)
* G24C S89I = 780 nM (3 of 3 replicates)
* E23W N33E S89V = 13 µM (2 of 3 replicates)
* E23S S89D R90N = 47 µM (1 of 3 replicates)
* S89G S93M Q96H = 1.1 µM (3 of 3 replicates)
* N52L S89W Q96V = 250 nM (3 of 3 replicates)
* E23K Y29A S89W = 160 nM (3 of 3 replicates)
* Y30E S89C Q96P = 25 nM (3 of 3 replicates)
* Y30H S89H = 49 nM (3 of 3 replicates)
* P54T S89A F95E = 610 nM (3 of 3 replicates)
* S26M Y30T S89Y = 13 µM (1 of 3 replicates)
* S89E F95D F98D = 910 nM (3 of 3 replicates)
* A32Y K50T S89Q = 5.4 µM (2 of 3 replicates)
* S89R D91Y S93G = 82 nM (3 of 3 replicates)
* S55G S89H S92F = 35 µM (1 of 3 replicates)
* G49Y N51H S89K = 3.1 µM (2 of 3 replicates)
* A32N S89L = 1.4 µM (3 of 3 replicates)
* A32C S89L F95D = 99 µM (2 of 3 replicates)
* E23A S89I Q96F = 320 nM (3 of 3 replicates)
* Y31H S89K D91I = no signal (0 of 3 replicates)
* D25Y S89F V97Y = 120 nM (3 of 3 replicates)
* A32G S89T Q96W = 9.7 µM (1 of 3 replicates)
* N33L S89L = 93 µM (2 of 3 replicates)
* P54I S89P Q96L = 400 µM (1 of 3 replicates)
* S26D S89L V97W = 1.4 µM (3 of 3 replicates)
* Y29W S89V R90H = 2.1 µM (3 of 3 replicates)
* G24Y S26C S89W = 3.7 µM (1 of 3 replicates)
* S89P S93Q = 16 µM (2 of 3 replicates)
* G49Y S89C G94C = 3.6 µM (3 of 3 replicates)
* Y31F N52W S89R = 160 µM (1 of 3 replicates)
* P54V S89C = 110 nM (3 of 3 replicates)
* Y29N S89H = 6.5 µM (3 of 3 replicates)
* S55I S89A F95V = 2.6 µM (1 of 3 replicates)
* E23Y L27C S89W = 7.9 µM (1 of 3 replicates)
* P54I S89M V97D = 1.1 µM (2 of 3 replicates)
* S89Q S92W = 340 nM (3 of 3 replicates)
* N33P G49I S89W = 73 µM (2 of 3 replicates)
* S89I F95V Q96E = 1.2 µM (3 of 3 replicates)
* Y30P N51H S89N = 1.7 µM (3 of 3 replicates)
* S89Q S93H = 180 nM (3 of 3 replicates)
* Y31L S55M S89D = 5.3 µM (3 of 3 replicates)
* R28F Y30S S89N = 27 nM (3 of 3 replicates)